Experiments:
[1] = target: T1, 14-3-3ζ (14‐3‐3 isoform ζ) (Homo sapiens, UniProt P63104); test: biochemical; format: binding; details: ITC; for K / T*ΔS / ΔG / ΔH / ΔS: T = 303.15 K
T1 construct: 14-3-3ζ (aa 1-245) with remaining His-Tag; made in house
T1 sequence (P63104 1-245): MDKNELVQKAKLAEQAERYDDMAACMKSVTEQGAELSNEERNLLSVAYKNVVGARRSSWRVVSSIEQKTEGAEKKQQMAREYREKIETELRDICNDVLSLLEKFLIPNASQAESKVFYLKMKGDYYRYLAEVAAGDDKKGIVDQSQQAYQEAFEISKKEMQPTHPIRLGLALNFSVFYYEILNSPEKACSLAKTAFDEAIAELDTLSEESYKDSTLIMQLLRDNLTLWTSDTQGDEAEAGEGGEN

[2] = target: T1, 14-3-3ζ (14‐3‐3 isoform ζ); test: biochemical; format: binding

In the case of CC(C)C[C@H](NC(=O)CNC(=O)[C@H](CCC(N)=O)NC(=O)CNC(=O)C(F)(F)F)C(=O)N[C@@H](CC(C)C)C(=O)N[C@@H](CC(=O)O)C(=O)N[C@@H](C)C(=O)N[C@@H](CC(C)C)C(=O)N[C@@H](CC(=O)O)C(=O)N[C@@H](CC(C)C)C(=O)N[C@@H](C)C(=O)N[C@@H](CO)C(N)=O [L], the Kd ([1]; 30°C, 15 µM 14-3-3ζ (aa 1-245, His-Tag), 10 mM HEPES, 150 mM NaCl, 0.5 mM tris(2-carboxyethyl)phosphine, pH 7.4, triplicate, error = standard deviation 1σ, read-out: dissociation constant Kd (ITC)) is reported as 650 nM, the “binding enthalpy ΔH” value ([1]; 30°C, pH 7.4, fluorine-labeled ligands, mean of three runs) is reported as -9.81 kcal/mol and the K ([1]; pH 7.4, mean value of 3 runs) is reported as 1.56E+06. For the same compound, the “T*ΔS” value ([1]; pH 7.4, mean value of 3 runs) was 1.217 kcal/mol, the ΔG ([1]; pH 7.4, mean value of 3 runs) was -8.588 kcal/mol and the ΔH ([1]; pH 7.4, mean value of 3 runs) was -9.805 kcal/mol. The ΔS ([1]; pH 7.4, mean value of 3 runs) was -4.0 cal mol-1 K-1, the K ([1]; pH 7.4, run1) was 1.33E+06 and the “T*ΔS” value ([1]; pH 7.4, run1) was 1.464 kcal/mol. The ΔG ([1]; pH 7.4, run1) was -8.495 kcal/mol, the ΔH ([1]; pH 7.4, run1) was -9.959 kcal/mol and the ΔS ([1]; pH 7.4, run1) was -4.8 cal mol-1 K-1. For the same compound, the K ([1]; pH 7.4, run2) was 1.54E+06, the “T*ΔS” value ([1]; pH 7.4, run2) was 1.443 kcal/mol and the ΔG ([1]; pH 7.4, run2) was -8.587 kcal/mol. For the same compound, the ΔH ([1]; pH 7.4, run2) was -10.03 kcal/mol, the ΔS ([1]; pH 7.4, run2) was -4.8 cal mol-1 K-1 and the K ([1]; pH 7.4, run3) was 1.82E+06. For the same compound, the “T*ΔS” value ([1]; pH 7.4, run3) was 0.743 kcal/mol, the ΔG ([1]; pH 7.4, run3) was -8.682 kcal/mol and the ΔH ([1]; pH 7.4, run3) was -9.425 kcal/mol. The ΔS ([1]; pH 7.4, run3) was -2.5 cal mol-1 K-1, the “allosteric cooperativity (in words)” value ([2]; 19F NMR line shape analysis, pH 7.4, room temperature) was “no evidence for allosteric cooperativity” and the koff ([2]; 19F NMR line shape analysis, slow exchange, 50 mM HEPES, 100 mM NaCl, 2 mM MgCl2, 1% DMSO, 10% D2O, pH 7.4, room temperature, error from fitting procedure (Equation S1), read-out: dissociation rate koff (NMR)) was 0.89 s⁻¹. The “19F NMR linewidth ν0.5 of the bound state (decrease correlates with increased flexibility)” value ([2]; 19F NMR, ligand bound to 14-3-3, 600 MHz, pH 7.4, room temperature) was 33.5 Hz, the “association rate kon = koff × Kd^-1 (Figure 2b)” value ([2]; calculated from koff (19F NMR) and ITC-derived Kd) was 1.36 ±0.22 s^-1M^-1 10^6 and the kon ([2]; calculated from koff (19F NMR) and ITC-derived Kd, read-out: association rate kon = koff × Kd^-1) was 1.36e+06 M⁻¹ s⁻¹.
